Experimental data reported in patent publication US12617776B2, “Stable salt and crystal forms of 2-[3-({1-[2-(dimethylamino)ethyl]-2-(2,2-dimethylpropyl)-1H-1,3-benzodiazol-5-yl}sulfonyl)azetidin-1-yl]ethan-1-ol” (priority 2020, dated 2026).
Entries after “also recorded” stand apart in the source; their conditions may differ. Where a name gives a salt, the structure may show the parent alone. Read-outs that look alike come from different tables or passages of the source.

How the values were obtained:
[1] = Thermal stability by TG/DTA; format: physicochemical; conditions: 10° C./minute under nitrogen
[2] = temperature cycled
Experimental: The aliquot volumes were typically 25-100 μL.
From the infrared (IR) transmission data of the sample vials, dissolution and precipitation events were recorded as the point of complete transmission of IR and the onset of turbidity by IR respectively.
Samples were held at ambient temperature for 18 hours to maximize the chance of precipitation. Any recoverable solids were analyzed by XRPD.

[3] = 7 days at 25° C./60% RH, 40° C./75% RH and 70° C./75% RH
[4] = for XRPD: interconversion (competitive) slurry of Pattern 2 in THF
[5] = water activity experiment
[6] = not given; remark: listed apart in the source
[7] = 7 days
[8] = 5° C., seeds Patterns 1, 2, 3 and 4, sample TW-0012E-019-01
[9] = 25° C., seeds Patterns 1, 2, 3 and 4, sample TW-0012E-019-02
[10] = 50° C., seeds Patterns 1, 2, 3 and 4, sample TW-0012E-019-03
[11] = EtOH/water (68/32), Aw 0.8, seeds Patterns 1, 2, 3 and 4, sample TW-0012E-020-04
[12] = EtOH/water (86/14), Aw 0.6, seeds Patterns 1, 2, 3 and 4, sample TW-0012E-020-03
[13] = EtOH/water (97/3), Aw 0.2, seeds Patterns 1, 2, 3 and 4, sample TW-0012E-020-01

## CN(C)CCn1c(CC(C)(C)C)nc2cc(S(=O)(=O)C3CN(CCO)C3)ccc21 [AAT-730, 2-[3-({1-[2-(dimethylamino)ethyl]-2-(2,2-dimethylpropyl)-1H-1,3-benzodiazol-5-yl}sulfonyl)azetidin-1-yl]ethan-1-ol]
[1]
  remains thermally stable up to: up to 250 °C

## CN(C)CCn1c(CC(C)(C)C)nc2cc(S(=O)(=O)C3CN(CCO)C3)ccc21 [AAT-730 HCl salt, HCl salt of 2-[3-({1-[2-(dimethylamino)ethyl]-2-(2,2-dimethylpropyl)-1H-1,3-benzodiazol-5-yl}sulfonyl)azetidin-1-yl]ethan-1-ol]
[2]; THF/water (13/1, Aw at most 0.9)
  T dissolution: 38 °C
[2]; methanol
  T dissolution: 40 °C
[1]
  remains thermally stable up to: up to 220 °C
[3]
  XRPD analysis of post-stressed samples (physical form): No change in physical form
[4]; [8]
  XRPD: Pattern 2
[4]; [9]
  XRPD: Pattern 2
[4]; [10]
  XRPD: Pattern 2
[5]; [11]
  XRPD: Pattern 1
[5]; [12]
  XRPD: Pattern 1
[5]; [13]
  XRPD: Pattern 2
Heated to 200° C. under N2, immersed in ice/water bath
  result of heating and quenching: degraded
Heated up to 180° C. under N2, immersed in ice/water bath
  result of heating and quenching: degraded
[6]; HCl salt, crash precipitation, water, anti-solvent ACN, sample TW-0012E-009-02
  XRPD: Amorphous
[6]; HCl salt, crash precipitation, water, anti-solvent IPA, sample TW-0012E-009-05
  XRPD: Pattern 3
[6]; HCl salt, crash precipitation, water, anti-solvent MeOH, sample TW-0012E-009-04
  XRPD: Pattern 4
[6]; HCl salt, crash precipitation, water, anti-solvent THF, sample TW-0012E-009-06
  XRPD: Amorphous
[6]; HCl salt, slow cooling, MeOH, sample TW-0012E-016-01
  XRPD: Pattern 1
[6]; HCl salt, slow cooling, THF/water (13/1, Aw at most 0.9), sample TW-0012E-016-03
  XRPD: Pattern 1
[6]; HCl salt, slow evaporation, DMSO/water (80/20, Aw at most 0.27), sample TW-0012E-008-02
  XRPD: Pattern 3 + 2
[6]; HCl salt, slow evaporation, EtOH/water (50/50), sample TW-0012E-008-03
  XRPD: Pattern 4
[6]; HCl salt, slow evaporation, water, sample TW-0012E-008-01
  XRPD: amorphous
[6]; HCl salt, sonication of paste, ACN, sample TW-0012E-010-02
  XRPD: Pattern 2
[6]; HCl salt, sonication of paste, DCM, sample TW-0012E-010-03
  XRPD: Pattern 2
[6]; HCl salt, sonication of paste, EtOH, sample TW-0012E-010-04
  XRPD: Pattern 2
[6]; HCl salt, sonication of paste, MeOH, sample TW-0012E-010-08
  XRPD: Pattern 1
[6]; HCl salt, sonication of paste, THF, sample TW-0012E-010-05
  XRPD: Pattern 2
[6]; HCl salt, sonication of paste, acetone, sample TW-0012E-010-01
  XRPD: Pattern 2
[6]; HCl salt, sonication of paste, acetone/water (20/1, Aw at most 0.6), sample TW-0012E-010-07
  XRPD: Pattern 1
[6]; HCl salt, temperature cycling, 1-Butanol, sample TW-0012E-015-01
  XRPD: Pattern 2
[6]; HCl salt, temperature cycling, ACN, sample TW-0012E-003-02
  XRPD: Pattern 1
[6]; HCl salt, temperature cycling, DIPE, sample TW-0012E-015-03
  XRPD: Pattern 2
[6]; HCl salt, temperature cycling, DMAc, sample TW-0012E-015-04
  XRPD: Pattern 2
[6]; HCl salt, temperature cycling, Dioxane, sample TW-0012E-015-09
  XRPD: Pattern 2
[6]; HCl salt, temperature cycling, EtOH, sample TW-0012E-003-04
  XRPD: Pattern 1
[6]; HCl salt, temperature cycling, EtOH/water (50/50), sample TW-0012E-003-08
  XRPD: Pattern 1
[6]; HCl salt, temperature cycling, IPA, sample TW-0012E-015-08
  XRPD: Pattern 2
[6]; HCl salt, temperature cycling, MEK, sample TW-0012E-015-05
  XRPD: Pattern 2
[6]; HCl salt, temperature cycling, MIBK, sample TW-0012E-015-06
  XRPD: Pattern 2
[6]; HCl salt, temperature cycling, THF, sample TW-0012E-003-05
  XRPD: Pattern 1
[6]; HCl salt, temperature cycling, THF/water (13/1, Aw at most 0.9), sample TW-0012E-003-07
  XRPD: Pattern 1
[6]; HCl salt, temperature cycling, acetone, sample TW-0012E-003-01
  XRPD: Pattern 1
[6]; HCl salt, temperature cycling, acetone/water (20/1, Aw at most 0.6), sample TW-0012E-003-06
  XRPD: Pattern 1
[6]; HCl salt, temperature cycling, cyclohexane, sample TW-0012E-015-02
  XRPD: Pattern 2
[6]; HCl salt, temperature cycling, heptane, sample TW-0012E-015-12
  XRPD: Pattern 2
[6]; HCl salt, temperature cycling, i-PrOAc, sample TW-0012E-015-10
  XRPD: Pattern 2
[6]; HCl salt, temperature cycling, toluene, sample TW-0012E-015-11
  XRPD: Pattern 2
[6]; salt formation in THF, input Lot No. 33-13, sample TW0012E-002-01
  XRPD: Pattern 1
[6]; salt formation in THF, input amorphous, sample TW0012E-001-01
  XRPD: Pattern 1

## CN(C)CCn1c(CC(C)(C)C)nc2cc(S(=O)(=O)C3CN(CCO)C3)ccc21 [AAT-730 HCl salt Pattern 2]
[4]; THF (anhydrous solvent), seeded with Patterns 1, 2, 3 and 4, 5 to 50° C., up to 10 days
  thermodynamic stability in interconversion slurries: most stable form; also recorded: stable form
[4]; [8]
  XRPD: Pattern 2
[4]; [9]
  XRPD: Pattern 2
[4]; [10]
  XRPD: Pattern 2
[5]; [11]
  XRPD: Pattern 1
[5]; [12]
  XRPD: Pattern 1
[5]; [13]
  XRPD: Pattern 2
[7]; HCl salt input Pattern 2, 25° C./60% RH, sample TW0012E-021-01
  XRPD: Pattern 2
[7]; HCl salt input Pattern 2, 40° C./75% RH, sample TW0012E-021-02
  XRPD: Pattern 2
[7]; HCl salt input Pattern 2, 70° C./75% RH, sample TW0012E-021-03
  XRPD: Pattern 2
